Measured affinities in a library of Ab-14 heavy chain variants

The target is the same throughout: PDVDLGDISGINAS, from the HR2 region of SARS-CoV-2 spike.

The variants keep the light chain, the linker and the frameworks of Ab-14 (scFv order VH, a 15-residue (Gly4Ser)3 linker, VL).
VH: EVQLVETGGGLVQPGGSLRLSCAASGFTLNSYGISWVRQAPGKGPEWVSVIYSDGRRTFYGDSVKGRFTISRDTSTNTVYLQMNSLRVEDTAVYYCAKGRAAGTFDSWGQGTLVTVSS
VL: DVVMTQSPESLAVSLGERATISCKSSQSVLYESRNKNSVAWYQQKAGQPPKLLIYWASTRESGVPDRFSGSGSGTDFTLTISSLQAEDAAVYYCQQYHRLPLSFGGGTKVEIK

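The parent was found by panning a naive human phage display library on the peptide. The variants were designed computationally from a first round of random CDR variants and then made and measured. Several design methods are mixed in this list. In AlphaSeq, yeast of one mating type display the scFv and yeast of the other type display the target. Binding brings cells together so that they mate, and sequencing counts the barcode pairs among the diploids. Scores were corrected for input abundance and mapped to Kd with protein pairs of known affinity run in the same pool. The assay was run in six technical replicates.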

The parent's heavy chain CDRs are GFTLNSYGIS, VIYSDGRRTFYGDSVK, GRAAGTFDS; each variant's own CDRs replace them letter for letter.
Numbers give log10(Kd / nM), so 0 is 1 nM and 3 is 1 µM. Smaller is tighter.
The mean shown is taken over the replicates in which the pair was detected.
"no signal" marks a missing value. The strain was present, yet no cells mated with the target were sequenced in any replicate, which points to weak or no binding.
A sequence measured in both rounds can read differently, since the two assays cover different ranges.
Of ten entries with the parent sequence, four were seen in most replicates (averages 0.34 to 2.37), three in one and three in none, so single entries are noisy.
The authors' rule: three or more of the six replicates give a measured affinity, fewer mean a poor binder.
Nonspecific signal, from three strains lacking the peptide, appeared in 1% of pairings of all heavy chain designs, centred on 2.08 (5% of these signals below 0.84); values are not corrected for it.

"log10 Kd (nM), mean",seen in,CDR-H1,CDR-H2,CDR-H3
-0.88,6 of 6,GFDLDEYGIS,VIYADGRRTFYADSVK,GELAGTFDQ
1.72,1 of 6,GFDLNLYGRS,VIYSDGRRTFYDDSVK,GQLAGTFDS
2.20,1 of 6,GFTLNSYGIS,VIYSDGRRTFYGDSVK,GRAAGGFDS
-0.08,6 of 6,GFTLNSYGIS,VIYSDGRRTFYTDSVK,GREAGTFDT
-0.22,6 of 6,GFDLNEYGIS,VIYADGVRTAYVDSVK,GNNAGTFDV
no signal,0 of 6,GFDINEYGIS,VIYADGVRRAYAQQVK,GHGEVVSMD
no signal,0 of 6,GFDFNSYGIS,VQYSDGRRTFYGDSVK,GRAAGWFNS
-0.36,6 of 6,GFDLDEYGIS,VIYADGRRTFYIDSVK,GETAGTFDF
no signal,0 of 6,GFDLNEYGIS,VIYADGKRSYATDSVK,NGYNIGASV
no signal,0 of 6,GFTLNSYGIS,VIYSDGRRTFYSDSVK,GRVVGTFDS
0.67,6 of 6,GFTLNEYGIS,VIYSDGRRTFYMDSVK,GRVAGTFDS
1.51,5 of 6,GFQLESYGIS,VIYSDGRRTFYGDSVK,GRTAGTFDS
-0.10,6 of 6,GFDLNEYGIS,VIYADGKRTAYSDSVK,GEAGGTFDV
-0.40,6 of 6,GFDLDEYGIS,VIYADGVRTAYTDSVK,GEVAGTFDV
1.34,1 of 6,GFSLNSYGIS,VIYSDGRRTFYGDSVK,GRAAATFDT
no signal,0 of 6,GFDLNMYGIS,VIYSDGRRTFYHDSVK,GRTAGTFDS
0.14,6 of 6,GFSLNSYGIS,VIYSDGRRTFYADSVK,GHVAGTFDS
1.38,6 of 6,GFSLNQYGIS,VIYSDGRRTFYGDSVF,GRAAGTFDS
no signal,0 of 6,GFWLNEYGIS,VIYSDGRRTFYGDSVK,GRAAGTFDE
1.19,2 of 6,GFNLNSYGIS,VIYSDGRRTFYGDMVK,GRNAGTFDS
2.34,2 of 6,GFTLNEYGIS,VIYSDGRRTFYTDSVK,GRTAGTFIS
0.64,6 of 6,GFSIDEYGIS,VIYADGVRTAVDPSVK,GQLAAYFDK
no signal,0 of 6,GFTLNSYGIQ,VIYSDGRRTFYSDSNK,GRAGGTFDS
0.59,6 of 6,GFWLNEYGIS,VIYSDGRRTEYGDSVK,GRAAGTFDS
-0.02,6 of 6,GFDLNEYGIS,VIYADGRRTAYADSVK,GEAGGTFDS
no signal,0 of 6,GFTLNSYGIS,VIYSDGRRQFYGDSVK,GFAAGTFDS
1.13,6 of 6,GFTLNSYGIS,VIYSDGRRTFYVDSVK,GRAAGTFDL
-0.05,6 of 6,GFDLNEYGIS,VIYADGRRTAYSDSVK,GNNAGTFDM
no signal,0 of 6,GFDLNPYGIS,VIYADGRWTFYGHSVK,GRFAGTNNS
-0.46,5 of 6,GFDLNEYGIS,VIYADGRRTFYADSVK,GQIAGTFDV
no signal,0 of 6,GFDIEEYGIS,VIYADGMRSSYSQSVK,GLYSGNIYV
no signal,0 of 6,GYDLNEYGIS,VIYADGRRAAYIDDVK,GHVNDHFAV
-0.45,6 of 6,GFDLNEYGIS,VIYADGRRTFYKDSVK,GETAGTFDQ
-0.52,6 of 6,GFSLNEYGIS,VIYSDGRRTFYGDDVK,GRQAGTFDS
-0.69,4 of 6,GFDLNEYGIS,VIYADGSRTAYTDSVK,GNVAGTFDL
no signal,0 of 6,GFTLNEYGTS,VIYSDGRRTFYGDSVK,GRAAVTFDQ
-0.81,6 of 6,GFDLEEYGIS,VIYADGRRTFYSDSVK,GEVAGTFDS
0.12,6 of 6,GFSLNSYGIS,VIYSDGRRTFYGDSVK,GSIAGTFDS
no signal,0 of 6,GDDLENVGIS,VIYADGKRKAYAQKVK,GHTGGTFFD
1.09,2 of 6,GYDIEEYGIS,VIYADGKKNAFANSFK,GKWAGTFDD
1.85,1 of 6,GFTLNSYGIS,VIYSDGRRTFYGDSVK,GRARGTFDS
no signal,0 of 6,GFTLNSYGIS,VIYSDGRRNFYGDSVD,LRAAGAFDL
2.21,1 of 6,GFTLNSYGIS,VIYSDGRRTGYLDSVK,ARAAGTFDQ
no signal,0 of 6,GYDIQDYGIS,VIYADGVRVAYHQSVK,GQTAGIFLL
0.19,6 of 6,WFTLNSYGIS,VIYSDGRRTFYADSVK,GQLAGTFDS
0.85,6 of 6,GFTLNEYGIS,VIYSDGRRTMYTDSVK,GRFAGTFDS
-0.16,6 of 6,GFDLNEYGIS,VIYADGRRTFYTDSVK,GNQAGTFDV
no signal,0 of 6,GFTLNSYGIS,VIYSDGRRTFYGDSVK,GRNTGTFDS
no signal,0 of 6,GFTLNDYGIS,VIYSDGRRTFYGDSVK,GRRALTFHS
0.61,6 of 6,GFELNSYGIS,VIYSDGRRTFYDDDVK,GRTAGTFDS
-0.08,6 of 6,GFTLNSYGIS,VIYSDGRRTFYEDSVK,GQEAGTFDS
0.08,6 of 6,GFSLNEYGIS,VIYSDGRRTFYGDSVK,GRTAGTFDD
no signal,0 of 6,GFTLNEYGIS,VIYSDGRRTFYKDSVK,GRCAGTFDS
-0.34,6 of 6,GFSLNEYGIS,VIYSDGRRTFYSDSVK,GREAGTFDS
no signal,0 of 6,GFDLDEYGIS,VIYADGMRSKYADSVK,GTTGGTIEA
0.01,6 of 6,GFDLDEYGIS,VIYADGMRTAYADDVK,GNQAGTFDT
1.20,6 of 6,KFELNSYGIS,VIYADGRRTFYGDSVK,GEAAGTFDS
-0.73,6 of 6,GFNLNEYGIS,VIYADGVRTFYTDDVK,GEVAGTFDL
1.66,5 of 6,GFTLNEYGIS,VIYSDGRRTFYGDSVK,GRAAGTFAV
no signal,0 of 6,GFDLNEYGIS,VIYADGHRTAYSNNVK,GGQAGIALS
no signal,0 of 6,GFILNEYGIS,VIYADGMRTSYAQNVK,GYNGSDLTK
-0.18,6 of 6,GFDLNEYGIS,VIYADGVRKAYSDSVK,GNNAGTFDV
2.05,2 of 6,GFHLNSYGIS,VIYSDGKRRFYGDSVK,GRLAGTFDS
-0.59,6 of 6,GFDLNEYGIS,VIYADGQRTVYADSVK,GNVAGTFDT
0.13,6 of 6,GFSLNDYGIS,VIYSDGRRTFYHDSVK,GRTAGTFDS
no signal,0 of 6,GFWLNDYGIS,VIYSDGRRTFYGDSVK,GRAALTFDE
no signal,0 of 6,GNALNSYGIS,VIYSDGMRTFYGDSVK,GRAAGTFDS
0.24,6 of 6,GFSLNDYGIS,VIYSDGRRTFYIDTVK,GNAAGTFDS
-0.02,6 of 6,GFTLNQYGIS,VIYADGRRTAYGDSVK,GRAAGSFDS
no signal,0 of 6,GFTINSAGIS,VIYSDGRRTFYSDSVK,GRAAGTFDS
no signal,0 of 6,GFTLNSYGIS,VDYSDGRRTMYGDSVK,GTAAGTFDS
2.61,1 of 6,GFNIQEYGIS,VIYADGKRTAYAEPVK,GEDGGTIDT
2.16,5 of 6,WFSLNSYGIS,VIYSDGRRTFYADSVK,GWTAGTFDS
0.58,6 of 6,GFTLNDYGIS,VIYADGRRTRYQDSVK,GRDAGTFDS
-0.09,6 of 6,GFGLNEYGIS,VIYSDGRRTFYHDDVK,GRTAGTFDS
0.53,6 of 6,GFTLNDYGIS,VIYSDGKRTFYSDSVK,GRAAGTFDD
no signal,0 of 6,GMDLKEYGIS,VIYADGKRSYYVQDVK,GTNVGQGTF
no signal,0 of 6,EFDLNEYGIS,VIYADGKRTFYADHVK,GTNAGVFDT

Extract of 13 entries:

{"CDR-H1": "GFTLNEYGTS", "CDR-H2": "VIYSDGRRTFYGDSVK", "CDR-H3": "GRAAVTFDQ", "log10 Kd (nM), mean": "no signal", "seen in": "0 of 6"}
{"CDR-H1": "GFGLNEYGIS", "CDR-H2": "VIYSDGRRTFYHDDVK", "CDR-H3": "GRTAGTFDS", "log10 Kd (nM), mean": "-0.09", "seen in": "6 of 6"}
{"CDR-H1": "GFTLNEYGIS", "CDR-H2": "VIYSDGRRTFYGDSVK", "CDR-H3": "GRAAGTFAV", "log10 Kd (nM), mean": "1.66", "seen in": "5 of 6"}
{"CDR-H1": "GFSLNDYGIS", "CDR-H2": "VIYSDGRRTFYHDSVK", "CDR-H3": "GRTAGTFDS", "log10 Kd (nM), mean": "0.13", "seen in": "6 of 6"}
{"CDR-H1": "GFWLNEYGIS", "CDR-H2": "VIYSDGRRTFYGDSVK", "CDR-H3": "GRAAGTFDE", "log10 Kd (nM), mean": "no signal", "seen in": "0 of 6"}
{"CDR-H1": "GFDINEYGIS", "CDR-H2": "VIYADGVRRAYAQQVK", "CDR-H3": "GHGEVVSMD", "log10 Kd (nM), mean": "no signal", "seen in": "0 of 6"}
{"CDR-H1": "GFDLNPYGIS", "CDR-H2": "VIYADGRWTFYGHSVK", "CDR-H3": "GRFAGTNNS", "log10 Kd (nM), mean": "no signal", "seen in": "0 of 6"}
{"CDR-H1": "GFDLDEYGIS", "CDR-H2": "VIYADGVRTAYTDSVK", "CDR-H3": "GEVAGTFDV", "log10 Kd (nM), mean": "-0.40", "seen in": "6 of 6"}
{"CDR-H1": "GFTLNSYGIS", "CDR-H2": "VIYSDGRRTFYGDSVK", "CDR-H3": "GRNTGTFDS", "log10 Kd (nM), mean": "no signal", "seen in": "0 of 6"}
{"CDR-H1": "GFTLNDYGIS", "CDR-H2": "VIYSDGRRTFYGDSVK", "CDR-H3": "GRRALTFHS", "log10 Kd (nM), mean": "no signal", "seen in": "0 of 6"}
{"CDR-H1": "GFSLNSYGIS", "CDR-H2": "VIYSDGRRTFYGDSVK", "CDR-H3": "GSIAGTFDS", "log10 Kd (nM), mean": "0.12", "seen in": "6 of 6"}
{"CDR-H1": "GFTLNEYGIS", "CDR-H2": "VIYSDGRRTFYTDSVK", "CDR-H3": "GRTAGTFIS", "log10 Kd (nM), mean": "2.34", "seen in": "2 of 6"}
{"CDR-H1": "GFTLNEYGIS", "CDR-H2": "VIYSDGRRTFYMDSVK", "CDR-H3": "GRVAGTFDS", "log10 Kd (nM), mean": "0.67", "seen in": "6 of 6"}

Data: MIT Lincoln Laboratory AlphaSeq set, Li et al. 2023, doi:10.1038/s41467-023-39022-2, as distributed in FLAb.